# Procedure: A combined fertility and peri- and post-natal development study was conducted in rats.
smiles,measurement,setting,value
"CC(C)Cn1cnc2c(N)nc3ccccc3c21 [imiquimod, 1-(2-methylpropyl)-1H-imidazo[4,5-c]quinolin-4-amine]","Exposure multiple at dose without effects on growth, fertility or reproduction",6 mg/kg/day,57 ×MRHD based on AUC comparisons
same,"Dose up to which no effects on growth, fertility, reproduction or post-natal development were noted","oral, highest dose evaluated",6 mg/kg/day

# From patent US8222270B2 (Medicis Pharmaceutical Corporation, priority 2008, dated 2012)
